Values quoted from earlier work as cited in patent publication US5332726A, “Antithrombotic peptides and pseudopeptides” (Rhone-Poulenc Rorer Pharmaceuticals Inc., priority 1992, dated 1994).

System: human platelets
Conditions: cited from earlier work

## N=C(N)NCCC[C@H](NC(=O)[C@@H]1CCCN1C(=O)CN)C(=O)N1CCC[C@H]1C(=O)O [glycyl-L-prolyl-L-arginyl-L-proline]
  inhibits fibrinogen binding to human platelets: inhibits fibrinogen binding to human platelets
